Measurements taken from US20100173010A1.
Some compounds may have been tested in ways that are not shown here.

Assays:
[1] = Isotony / osmolality of solutions and formulations; settings: for Isotony: 500 mg polymetaphosphate in 100 ml of PBS buffer (Table 1.A); for Osmolality (mOsm): pH brought back to 7.5
[2] = system: human polymorphonucleates (PMN); experiment: Vitality of human polymorphonucleates (PMN), Trypan
human PMNs = experiment: Inhibition of the chemiluminescence produced by human PMNs stimulated with opsonized zymosan
human chondrocytes = experiment: Cytotoxic effect on human chondrocytes, MTT method; settings: 24 hours, 4 separate experiments
superoxide anion = experiment: Superoxide anion inhibition, PMA-stimulated PMNs, cytochrome-C reduction
[3] = Table 7.C (Tests with SMP; head prints SEMP), 0.5 mg/ml in PBS
[4] = Table 7.C (Tests with SMP; head prints SEMP), 1 mg/ml in PBS
[5] = Table 7.C (Tests with SMP; head prints SEMP), 2 mg/ml in PBS
[6] = Table 7.C (Tests with SMP; head prints SEMP), 4 mg/ml in PBS
[7] = polymetaphosphate alone 0.5 mg/ml in PBS
[8] = polymetaphosphate alone 1 mg/ml in PBS
[9] = polymetaphosphate alone 2 mg/ml in PBS
[10] = polymetaphosphate alone 4 mg/ml in PBS
[11] = polymetaphosphate alone […] in PBS

With Cyclic sodium hexametaphosphate the Isotony [1] was “Isotony = 285 mOsm”, the “Osmolality (mOsm)” value ([1]; Table 7.A, SEMP 0.5 mg/ml in PBS) was 273 mOsm and the “Osmolality (mOsm)” value ([1]; Table 7.A, SEMP 1 mg/ml in PBS) was 274 mOsm. For the same substance, the “Osmolality (mOsm)” value ([1]; Table 7.A, SEMP 2 mg/ml in PBS) was 274 mOsm, the “Osmolality (mOsm)” value ([1]; Table 7.A, SEMP 4 mg/ml in PBS) was 280 mOsm and the “Osmolality (mOsm)” value [1, 3] was 268 mOsm. The “Osmolality (mOsm)” value [1, 4] was 269 mOsm, the “Osmolality (mOsm)” value [1, 5] was 271 mOsm and the “Osmolality (mOsm)” value [1, 6] was 282 mOsm. The “% Vitality PMN” value ([2]; Table 7.A, SEMP 0.5 mg/ml in PBS, 37° C. for 5 minutes) was 100%, the “% Vitality PMN” value ([2]; Table 7.A, SEMP 1 mg/ml in PBS, 37° C. for 5 minutes) was 97% and the “% Vitality PMN” value ([2]; Table 7.A, SEMP 2 mg/ml in PBS, 37° C. for 5 minutes) was 96%. The “% Vitality PMN” value ([2]; Table 7.A, SEMP 4 mg/ml in PBS, 37° C. for 5 minutes) was 92%, the “% Vitality PMN” value [2, 3] was 99% and the “% Vitality PMN” value [2, 4] was 97%. For the same substance, the “% Vitality PMN” value [2, 5] was 98%, the “% Vitality PMN” value [2, 6] was 93% and the “inhibitory effect on the chemiluminescence produced by human PMNs (in words)” value (human PMNs) was “powerful inhibiting effect”. The “Test 1 % inhibition (chemiluminescence)” value (human PMNs; [7]) was 32.4%, the “Test 2 % inhibition (chemiluminescence)” value (human PMNs; [7]) was 17.5% and the “Test 3 % inhibition (chemiluminescence)” value (human PMNs; [7]) was 33.4%. For the same substance, the “Test 1 % inhibition (chemiluminescence)” value (human PMNs; [8]) was 64.8%, the “Test 2 % inhibition (chemiluminescence)” value (human PMNs; [8]) was 50.0% and the “Test 3 % inhibition (chemiluminescence)” value (human PMNs; [8]) was 66.9%. The “Test 1 % inhibition (chemiluminescence)” value (human PMNs; [9]) was 74.6%, the “Test 2 % inhibition (chemiluminescence)” value (human PMNs; [9]) was 72.5% and the “Test 3 % inhibition (chemiluminescence)” value (human PMNs; [9]) was 70.0%. For the same substance, the “Test 1 % inhibition (chemiluminescence)” value (human PMNs; [10]) was 81.0%, the “Test 2 % inhibition (chemiluminescence)” value (human PMNs; [10]) was 80.0% and the “Test 3 % inhibition (chemiluminescence)” value (human PMNs; [10]) was 74.3%. The “Test 1 % inhibition (chemiluminescence)” value (human PMNs; [11]) was 97.8%, the “Test 2 % inhibition (chemiluminescence)” value (human PMNs; [11]) was 84.0% and the “Test 3 % inhibition (chemiluminescence)” value (human PMNs; [11]) was 76.9%. For the same substance, the “% of metabolically active cells (mean ± SD)” value (human chondrocytes; 1 mg/ml) was 86.7 ± 4.6%, the “% of metabolically active cells (mean ± SD)” value (human chondrocytes; 2 mg/ml) was 85.2 ± 6.8% and the “% of metabolically active cells (mean ± SD)” value (human chondrocytes; 5 mg/ml) was 68.0 ± 5.2%. The “% of metabolically active cells (mean ± SD)” value (human chondrocytes; 15 mg/ml) was 48.3 ± 8.4%, the “inhibition of the production of superoxide anion (in words)” value (superoxide anion) was “inhibitory power on the production of superoxide anion, in direct proportion to its concentration” and the “Test 1 % inhibition (superoxide anion)” value (superoxide anion; PBS + SEMP 0.5 mg/ml) was 12.5%. The “Test 2 % inhibition (superoxide anion)” value (superoxide anion; PBS + SEMP 0.5 mg/ml) was 14.0%, the “Test 1 % inhibition (superoxide anion)” value (superoxide anion; PBS + SEMP 1 mg/ml) was 30.8% and the “Test 2 % inhibition (superoxide anion)” value (superoxide anion; PBS + SEMP 1 mg/ml) was 38.8%. The “Test 1 % inhibition (superoxide anion)” value (superoxide anion; PBS + SEMP 2 mg/ml) was 43.7%, the “Test 2 % inhibition (superoxide anion)” value (superoxide anion; PBS + SEMP 2 mg/ml) was 47.4% and the “Test 1 % inhibition (superoxide anion)” value (superoxide anion; PBS + SEMP 5 mg/ml) was 53.1%. The “Test 2 % inhibition (superoxide anion)” value (superoxide anion; PBS + SEMP 5 mg/ml) was 56.2%.

For Cyclic sodium trimetaphosphate, the Isotony [1] was “Isotony = 314 mOsm”.

For Linear sodium tripolyphosphate, the Isotony [1] was “Isotony = 300 mOsm”.

With Polymeric sodium metaphosphate the Isotony [1] was “Isotony = 284 mOsm”, the “Test 1 % inhibition (chemiluminescence)” value (human PMNs; [7]) was 42.5% and the “Test 2 % inhibition (chemiluminescence)” value (human PMNs; [7]) was 52.8%. For the same substance, the “Test 3 % inhibition (chemiluminescence)” value (human PMNs; [7]) was 34%, the “Test 1 % inhibition (chemiluminescence)” value (human PMNs; [8]) was 69.1% and the “Test 2 % inhibition (chemiluminescence)” value (human PMNs; [8]) was 70%. The “Test 3 % inhibition (chemiluminescence)” value (human PMNs; [8]) was 70%, the “Test 1 % inhibition (chemiluminescence)” value (human PMNs; [9]) was 77.6% and the “Test 2 % inhibition (chemiluminescence)” value (human PMNs; [9]) was 70%. The “Test 3 % inhibition (chemiluminescence)” value (human PMNs; [9]) was 73.6%, the “Test 1 % inhibition (chemiluminescence)” value (human PMNs; [10]) was 79.8% and the “Test 2 % inhibition (chemiluminescence)” value (human PMNs; [10]) was 76%. The “Test 3 % inhibition (chemiluminescence)” value (human PMNs; [10]) was 79.2%, the “Test 1 % inhibition (chemiluminescence)” value (human PMNs; [11]) was 82% and the “Test 2 % inhibition (chemiluminescence)” value (human PMNs; [11]) was 75%. For the same substance, the “Test 3 % inhibition (chemiluminescence)” value (human PMNs; [11]) was 81.5%, the “% of metabolically active cells (mean ± SD)” value (human chondrocytes; 1 mg/ml) was 95.0 ± 3.2% and the “% of metabolically active cells (mean ± SD)” value (human chondrocytes; 2 mg/ml) was 92.8 ± 4.0%. The “% of metabolically active cells (mean ± SD)” value (human chondrocytes; 5 mg/ml) was 63.2 ± 5.1% and the “% of metabolically active cells (mean ± SD)” value (human chondrocytes; 15 mg/ml) was 50.0 ± 7.6%.
